What was measured:
human red blood cells = test: Hemolysis assay; format: cell-based; conditions: 37° C., 1 h
Protocol: Hemolysis assay. […] The antibacterial polymer and PDC with different charges were serial diluted with PBS and placed in 96-well plates (100 μL/well). The blood cell suspension (10 μL/well) was added into the wells and incubated at 37° C. for 1 h to allow the complete hemolysis process. […] Following centrifugation at 3000 rpm for 7 min, the supernatant (70 μL/well) was transferred to another clean 96-well plate. OD 560 in each well was monitored by a microplate reader, and hemolysis was calculated using the following formula: […]

[1] = system: HEK 293 human embryonic kidney cells; test: Cell viability test (MTT cytotoxicity); format: cell-based; conditions: HEK 293, 48 h, concentration range tested
Protocol: Cell viability test. Cytotoxicity of different components was tested through MTT assays. HEK 293 human embryonic kidney cells were seeded onto a 96-well plate (1×10^4 cells/well) and cultured overnight. The cells were then treated with various polymers or PDCs with serial dilutions for 48 h and their viability was measured by a standard MTT assay. Data were collected by monitoring the difference between the absorbance at 560 nm and 650 nm using a GloMax-Multi Microplate Multimode Reader (Promega, Wis., USA).

Row | Substance | hemolytic activity, in words (human red blood cells) | cytotoxicity (MTT), in words [1]
1 | Hex-Cys-Cys-DET-strep [Positively-charged PDC] | only induced hemolysis at a high level of 10 mg/mL | limited toxicity at a high concentration of 2,000 μg/mL
2 | Hex-Cys-Cys-DET-strep-DMA [Neutralized PDC] | did not show any hemolytic activity | did not show any cytotoxicity

— patent US11911406B2, “PH-responsive polymer-drug conjugates for enhanced antibacterial efficacy” (priority 2020, dated 2024)
